Assay results taken from patent US20030147936A1, “Prostatic hormonal implants treatment of prostate cancer” (priority 2002, published 2003).

Tested on: recurrent poor prognostic prostate cancer
Conditions: DES 1 mg three times per day by mouth; follow-ups
Protocol: Since this hormonal treatment was rendered at recurrence after radiation therapy, it is termed as secondary hormonal treatment.
Later it was reduced to 1 mg per day.

For `CC/C(=C(/CC)c1ccc(O)cc1)c1ccc(O)cc1` [DES, diethylstilbestrol], the “duration of maintained biochemical tumor control” value was “four”.
